{"source": "paper PMC10908090", "proteins": {"B1": {"name": "STING: T229A (protein)", "parent chain": "MPHSSLHPSIPCPRGHGAQKAALVLLSACLVTLWGLGEPPEHTLRYLVLHLASLQLGLLLNGVCSLAEELRHIHSRYRGSYWRTVRACLGCPLRRGALLLLSIYFYYSLPNAVGPPFTWMLALLGLSQALNILLGLKGLAPAEISAVCEKGNFNVAHGLAWSYYIGYLRLILPELQARIRTYNQHYNNLLRGAVSQRLYILLPLDCGVPDNLSMADPNIRFLDKLPQQTGDHAGIKDRVYSNSIYELLENGQRAGTCVLEYATPLQTLFAMSQYSQAGFSREDRLEQAKLFCRTLEDILADAPESQNNCRLIAYQEPADDSSFSLSQEVLRHLRQEEKEEVTVGSLKTSAVPSTSTMSQEPELLISGMEKPLPLRTDFS"}}, "conditions_in_all_cases": "glycan lost; control: WT STING", "key": {"[1]": {"assay": "native gel electrophoresis, cGAMP-induced"}, "[2]": {"assay": "STING IP, K27-Ub immunoblot, HEK-293T"}, "[3]": {"assay": "STING IP, K63-Ub immunoblot, HEK-293T"}, "[4]": {"assay": "immunofluorescence with calnexin/GM130, ISD stimulation"}}}
{"protein": "B1", "values": [{"measurement": "oligomerisation", "setting": "[1]", "value": "abolishes"}, {"measurement": "other: K27-linked ubiquitination", "setting": "[2]", "value": "no change"}, {"measurement": "other: K63-linked ubiquitination", "setting": "[3]", "value": "decreases"}, {"measurement": "localisation_or_trafficking", "setting": "[4]", "value": "abolishes"}]}
